Kd data for one substance are collected here from article PMC11602115 (Journal of Medicinal Chemistry, 2017).

By UniProt entry, the sequences of proteins in these tests, tags left out. Where a name states a change or a piece, a line headed by the entry shows the natural chain unless it says otherwise.
UniProt P43119: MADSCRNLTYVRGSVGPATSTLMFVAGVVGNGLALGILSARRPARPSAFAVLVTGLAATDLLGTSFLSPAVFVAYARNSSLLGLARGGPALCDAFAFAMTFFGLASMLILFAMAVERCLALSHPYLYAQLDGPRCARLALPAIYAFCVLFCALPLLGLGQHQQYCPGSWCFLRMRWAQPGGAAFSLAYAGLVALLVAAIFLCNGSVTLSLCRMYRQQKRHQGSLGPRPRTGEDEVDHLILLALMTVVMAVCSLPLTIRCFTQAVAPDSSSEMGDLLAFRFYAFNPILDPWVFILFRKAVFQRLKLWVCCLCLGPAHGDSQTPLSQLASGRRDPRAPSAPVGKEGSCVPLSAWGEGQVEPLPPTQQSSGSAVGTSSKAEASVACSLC

By Kd is commonly meant the constant that tells how readily two partners part at equilibrium.

In test [1] the target is T1, IP (Homo sapiens, UniProt P43119). Kind of test: Radioligand binding, human IP ([3H]-iloprost). Conditions: recombinant receptor membranes, read-out: measured Kd, human IP. Set-up: expressed in transfected cells; host or cells: CHO-K1 (crude membranes). On the procedure: CHO-K1 cells expressing recombinant IP receptors were harvested, washed with ice-cold phosphate buffered saline, pH 7.4 (PBS), and then centrifuged at 48 000g for 20 min at 4 °C. The resulting cell pellet was then resuspended in ice-cold PBS containing 20 mM HEPES, pH 7.4, and 0.1 mM EDTA, homogenized on ice using a Brinkman Polytron, and centrifuged (48 000g for 20 min at 4 °C). This resuspension and centrifugation process was repeated one further time. Crude membrane pellets were stored at −80 °C until used for radioligand binding assays.
Assay incubations were terminated by rapid filtration through PerkinElmer GF/C filtration plates pretreated with 0.3% PEI, under vacuum pressure using a 96-well Packard filtration apparatus, followed by multiple washes with ice-cold wash buffer (PBS containing 20 mM HEPES and 0.1 mM EDTA, pH 7.4). Plates were then dried at 45 °C for a minimum of 2 h. Finally, 25 μL of BetaScint scintillation cocktail was added to each well and plates were counted in a Packard TopCount scintillation counter. In each competition study, test compounds were dosed at 10 concentrations with triplicate determinations at each test concentration.

For test [2], the target named is T1, IP. Further details: expressed in transfected cells; host or cells: CHO-K1 (crude membranes). Conditions: literature value, reference not given; cited from earlier work.

Read-outs that look alike come from different tables or passages of the source.

Take [^3H]-iloprost [reference compound]: the Kd at IP [1] is 7 nM; on IP [2], 9.82 nM.
